Patent publication US11904020B2, “Bicyclic peptide ligands specific for TREM2” (Bicycle Tx Limited, priority 2021, dated 2024)

Amino acid sequences for entries named in this document (tags omitted). Residues count along the entry.
UniProt Q9NZC2, 19-131: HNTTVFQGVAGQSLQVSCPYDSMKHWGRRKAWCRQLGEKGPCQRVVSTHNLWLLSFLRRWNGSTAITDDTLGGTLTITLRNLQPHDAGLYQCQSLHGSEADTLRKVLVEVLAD

molecular target: TREM2 extracellular domain (ECD) (residues 19-131, C-terminally biotinylated, deglycosylated or glycosylated) (Homo sapiens, UniProt Q9NZC2); assay: biochemical; settings: Human BLI (Kd; nM) (deglycosylated), Table 4A, steady-state KD, 25° C.
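Further: Bio-layer interferometry in 50 mM HEPES pH 7.5 with 150 mM NaCl and 0.1% Tween, double-referenced with blank wells and unrelated-protein sensors, equilibrium response fitted versus concentration.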

| Compound | Kd |
| --- | --- |
| C[C@H](N)C(=O)N[C@H]1CSCCC(=O)N2CN3CN(C2)C(=O)CCSC[C@H](NC(=O)[C@H](Cc2ccc(O)cc2)NC(=O)[C@H](CCC(=O)O)NC(=O)[C@H](CO)NC1=O)C(=O)N[C@@H](Cc1ccccc1)C(=O)N[C@@H](Cc1c[nH]c2ccccc12)C(=O)N1CCC[C@H]1C(=O)N[C@@H](Cc1ccccc1)C(=O)N[C@@H](Cc1c[nH]c2ccccc12)C(=O)N[C@@H](CC(N)=O)C(=O)N[C@H](C(=O)N[C@@H](C)C(N)=O)CSCCC3=O [BCY17671, A-(SEQ ID NO: 4)-A] | 900 nM |
| C[C@H](N)C(=O)N[C@H]1CSCCC(=O)N2CN3CN(C2)C(=O)CCSC[C@H](NC(=O)[C@H](Cc2ccc(O)cc2)NC(=O)[C@H](CCC(=O)O)NC(=O)[C@H](CO)NC1=O)C(=O)N[C@@H](Cc1ccccc1)C(=O)N[C@@H](Cc1c[nH]c2ccccc12)C(=O)N1CCC[C@H]1C(=O)N[C@@H](Cc1ccccc1)C(=O)N[C@@H](Cc1ccccc1)C(=O)N[C@@H](CC(N)=O)C(=O)N[C@H](C(=O)N[C@@H](C)C(N)=O)CSCCC3=O [BCY17672, A-(SEQ ID NO: 45)-A] | 2000 nM |
| CC(C)C[C@@H]1NC(=O)[C@H](Cc2ccc(O)cc2)NC(=O)[C@H](Cc2ccccc2)NC(=O)[C@@H]2CCCN2C(=O)[C@H](Cc2c[nH]c3ccccc23)NC(=O)[C@H](Cc2ccccc2)NC(=O)[C@@H]2CSCCC(=O)N3CN(CN(C3)C(=O)CCSC[C@@H](C(=O)N[C@@H](C)C(N)=O)NC1=O)C(=O)CCSC[C@H](NC(=O)[C@H](C)N)C(=O)N[C@@H](CO)C(=O)N[C@@H](CCC(=O)O)C(=O)N[C@@H](Cc1ccc(O)cc1)C(=O)N2 [BCY19777, A-(SEQ ID NO: 16)-A] | ~1200 nM |

same assay, conditions: Human BLI (Kd; nM) (deglycosylated), Table 4B, steady-state KD, 25° C.

| Compound | Kd |
| --- | --- |
| CC(=O)N[C@H]1CSCCC(=O)N2CN3CN(C2)C(=O)CCSC[C@H](NC(=O)[C@H](Cc2ccc(O)cc2)NC(=O)[C@H](CCC(=O)O)NC(=O)[C@H](CO)NC1=O)C(=O)N[C@@H](Cc1ccccc1)C(=O)N[C@@H](Cc1c[nH]c2ccccc12)C(=O)N1CCC[C@H]1C(=O)N[C@@H](Cc1ccccc1)C(=O)N[C@@H](Cc1ccc(O)c(C(C)(C)C)c1)C(=O)N[C@@H](Cc1c[nH]cn1)C(=O)N[C@H](C(N)=O)CSCCC3=O [BCY20080, Ac-(SEQ ID NO: 76)] | 375 nM |
| CC(=O)N[C@H]1CSCCC(=O)N2CN3CN(C2)C(=O)CCSC[C@H](NC(=O)[C@H](Cc2ccc(O)cc2)NC(=O)[C@H](CCC(=O)O)NC(=O)[C@H](CO)NC1=O)C(=O)N[C@@H](Cc1ccccc1)C(=O)N[C@@H](Cc1c[nH]c2ccccc12)C(=O)N1CCC[C@H]1C(=O)N[C@@H](Cc1ccccc1)C(=O)N[C@@H](Cc1cccc2ccccc12)C(=O)N[C@@H](Cc1c[nH]cn1)C(=O)N[C@H](C(N)=O)CSCCC3=O [BCY20081, Ac-(SEQ ID NO: 77)] | 1060 nM |
| C#CCCC(=O)NCCCC[C@@H]1NC(=O)[C@H](CO)NC(=O)[C@@H](NC(C)=O)CSCCC(=O)N2CN3CN(C2)C(=O)CCSC[C@H](NC(=O)[C@H](Cc2ccc(O)cc2)NC1=O)C(=O)N[C@@H](Cc1ccccc1)C(=O)N[C@@H](Cc1c[nH]c2ccccc12)C(=O)N1CCC[C@H]1C(=O)N[C@@H](Cc1ccccc1)C(=O)N[C@@H](Cc1ccc(O)cc1)C(=O)N[C@@H](Cc1c[nH]cn1)C(=O)N[C@H](C(N)=O)CSCCC3=O [BCY20096, Ac-(SEQ ID NO: 84)] | 2500 nM |
| CC(=O)N[C@H]1CSCCC(=O)N2CN3CN(C2)C(=O)CCSC[C@H](NC(=O)[C@H](Cc2ccc(O)cc2)NC(=O)[C@H](CCC(=O)O)NC(=O)[C@H](CO)NC1=O)C(=O)N[C@@H](Cc1ccccc1)C(=O)N[C@@H](Cc1c[nH]c2ccccc12)C(=O)N1CCC[C@H]1C(=O)N[C@@H](Cc1ccccc1)C(=O)N[C@@H](Cc1ccc(O)cc1)C(=O)N[C@@H](CCCCNC(=N)N)C(=O)N[C@H](C(N)=O)CSCCC3=O [BCY20575, Ac-(SEQ ID NO: 101)] | 375 nM |
